Each structure is given as a SMILES string. The source made the active and inactive calls. No cut-off for these calls is given here.

By UniProt entry, the sequences of proteins in these tests, tags left out.
UniProt P10415, whole entry, looked up: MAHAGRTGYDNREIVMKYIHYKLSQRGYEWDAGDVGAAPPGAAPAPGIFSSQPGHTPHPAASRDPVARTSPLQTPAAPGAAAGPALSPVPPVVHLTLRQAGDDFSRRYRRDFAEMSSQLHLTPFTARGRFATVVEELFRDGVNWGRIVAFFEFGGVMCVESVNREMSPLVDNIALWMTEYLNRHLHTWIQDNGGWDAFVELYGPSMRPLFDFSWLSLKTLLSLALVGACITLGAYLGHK
UniProt O43521, whole entry, looked up: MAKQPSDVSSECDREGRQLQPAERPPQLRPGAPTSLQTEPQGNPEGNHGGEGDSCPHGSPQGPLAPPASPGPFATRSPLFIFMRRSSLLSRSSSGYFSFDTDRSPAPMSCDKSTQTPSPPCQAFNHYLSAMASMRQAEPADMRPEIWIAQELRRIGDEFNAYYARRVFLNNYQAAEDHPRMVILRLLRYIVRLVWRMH

The target in the experiment is BCL2/BCL2L11 (Homo sapiens) (UniProt P10415+O43521). Particulars: MOLT-4, dose 0.1-1000 nM, time 4.0 hrs.

For the molecule `Cc1c(-c2ccc(N3CCc4cccc(C(=O)Nc5nc6ccccc6s5)c4C3)nc2C(=O)O)cnn1CC12CC3CC(CC(C3)C1)C2`, the inhibition result is “Active”.

For the molecule `CN(C)CC#Cc1ccc(OCCCc2sc(N3CCc4cccc(C(=O)Nc5nc6ccccc6s5)c4C3)nc2C(=O)O)c(F)c1` [A-1155463], the inhibition entry is “inactive”.

For the origin of these results see ChEMBL document CHEMBL5705901, “Exploiting selective BCL-2 family inhibitors to dissect cell survival dependencies and define improved strategies for cancer therapy” (Sci Transl Med, 2015).
